Results published in US6916432B2, “Hair bleach composition and hair dye composition” (Kao Corporation, priority 2000, dated 2005).

Test: physchem

logP: 1.2
SMILES: OCCc1ccccc1 [2-phenylethanol]
